NALP1 yeast inh = blocks the NALP1 inflammasome reconstituted in yeast. S. cerevisiae NALP1/ASC/caspase-1 growth, X-gal OD620, 72 h. inhibition, % at 10 µM. hit rate 0.61% among 280,000; in the data active means inhibition mostly above about 24%, no sharp cut-off; inactive means mostly below about 32%
MC4R antagonist = antagonists of human melanocortin 4 receptor (MC4R); hit rate 0.48% among 360,000; MC4R-expressing cells, MTII-stimulated cAMP, LANCE TR-FRET; AID 540295; inhibition, % at 6.5 µM; P32245;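 active means inhibition above its plate's cutoff, the mean of tested wells on that plate plus 3 SD, cut at about 29% in these data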;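 further: 0% = Melanotan II alone and 100% = Melanotan II plus saturating MCL0020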
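System – human MC4R-expressing U2OS cells · Also added – Melanotan II · Dosing – one concentration, 6.5 µM nominal · Timing – 30-min compound, 1-h challenge, 1-h detection, room temperature · Measured by – Eu-cAMP/anti-cAMP TR-FRET, emission 671 nm · Replicates – singlicate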
Yeast UUG start = modulators of yeast start codon fidelity, primary screen, whole organism, S. cerevisiae, single point, plate reader | AID 602363, 2012 | S. cerevisiae UUG-firefly luciferase reporter, luminescence/redox ratio | activity score, % at 18.7 µM | hit rate 0.13% among 350,000;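 active = replicate mean at a twofold rise or more, about +100% in these data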;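 also: firefly luciferase made from a UUG start codon reports start codon fidelity; reporter light over untreated wells divided by growth signal over untreated wells; some hits fall short of that in this replicate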
HDAC3 inh = blocks human histone deacetylase 3. O15379. recombinant HDAC3, fluorogenic peptide/trypsin coupled, fluorescence. inhibition, % at 8.3 µM. hit rate 0.15% among 320,000; in the data active means inhibition above about 26%, passing the limit was not always enough; inconclusive means no clear call, values can overlap the other calls
MC4R ag barr = human MC4R agonism via beta-arrestin; P32245; U2OS MC4R beta-arrestin complementation, luminescence; percent of melanotan II response, DMSO zero; activation, % at 8.9 µM; hit rate 0.98% among 360,000;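 active means activation above a per-plate cutoff, the mean activation of sample wells on that plate plus 3 SD, cut at about 8% in these data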
ALR H2O2 inh = human ALR oxidase inhibition via reduced H2O2; P55789; purified ALR, DTT oxidation, H2O2 HRP-luminol luminescence; inhibition, % (concentration not given with the values); 3.8% of 290,000 active; AID 485317;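 active = mean and each replicate at 75% or more; inconclusive = only one of the two met; inactive = neither met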;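 note: stock transfer was 7.5 nL into about 7.5 µL; 0% = neutral wells and 100% = wells with inactivated enzyme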
U2OS cAMP counter = nonselective cAMP signaling inhibitor, MC4R antagonist counter-screen. shares compounds with MC4R antagonist. parental U2OS, forskolin cAMP, LANCE TR-FRET. inhibition, % at 6.5 µM. hit rate 26% among 1,600. AID 602193;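 active means mean inhibition over triplicates above the low-control well mean plus 3 SD, set per campaign, cut at about 13% in these data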;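 further: signal is single emission at 671 nm which falls as cellular cAMP rises; 0% = forskolin-stimulated wells and 100% = buffer without forskolin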
MC4R antag conf = human MC4R cAMP antagonism confirmation | shares compounds with MC4R antagonist | MC4R-expressing cells, MTII-stimulated cAMP, TR-FRET | inhibition, % at 6.5 µM | hit rate 27% among 1,600; in the data active means inhibition above about 29%;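 further: 0% = agonist stimulated wells alone and 100% = agonist stimulated wells plus saturating reference antagonist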
Starred values were filed as active, the others as inactive; ? = inconclusive; / = no result given; ! = repeats disagree. Sampled rows, rich in hits. Any-hit rate of the full collection: about 4.2%.

Letter code: A = NALP1 yeast inh; B = MC4R antagonist; C = Yeast UUG start; D = HDAC3 inh; E = MC4R ag barr; F = ALR H2O2 inh; G = U2OS cAMP counter; H = MC4R antag conf
1	CNS(=O)(=O)c1cc(Cl)ccc1Sc1ccccc1C(=O)O
  A = -4	B = 2	C = -17	D = 1	E = -3	F = -9	G = /	H = /
2	NS(=O)(=O)c1c(Sc2ccccc2C(=O)O)ccc2ccccc12
  A = 12	B = 37*	C = -11	D = 1	E = 0	F = /	G = 17*	H = 38*
3	CC(C)NC(=O)N[C@@H]1CC[C@@H](CC(=O)NCc2ccc(Oc3ccccc3)cc2)O[C@H]1CO
  A = /	B = /	C = 2	D = /	E = /	F = /	G = /	H = /
4	Cc1ccc(-c2cc3ccccc3nc2N2CCOCC2)cc1
  A = -4	B = 34*	C = /	D = 8	E = 2	F = -8	G = -1	H = -3
5	CCC(=O)N(C)C[C@H]1Oc2cc(-c3cncnc3)ccc2S(=O)(=O)N([C@@H](C)CO)C[C@H]1C
  A = /	B = /	C = 4	D = /	E = /	F = /	G = /	H = /
6	Cc1noc(C)c1NC(=O)N(C)C[C@H]1Oc2ncc(C#CCN(C)C)cc2C(=O)N([C@H](C)CO)C[C@H]1C
  A = /	B = /	C = 4	D = /	E = /	F = /	G = /	H = /
7	COc1cc(NC(=O)c2csc(-c3ccncc3)n2)cc(C(=O)Nc2cccc(C(F)(F)F)c2)c1
  A = /	B = 39*!	C = -14	D = 6	E = 2	F = 3	G = 0	H = 4
8	COc1ccc(-c2cc(C(=O)Nc3cc(OC)cc(C(=O)Nc4cccc(C(F)(F)F)c4)c3)[nH]n2)cc1
  A = /	B = 31*!	C = -7	D = -3	E = 7	F = -10	G = 6	H = 19
9	O=C(Nc1ccc(-c2csc(Nc3cccc(C(F)(F)F)c3)n2)cc1)c1ccccc1
  A = /	B = 23	C = -19	D = 10	E = 2	F = -4	G = /	H = /
10	O=C(Nc1cccc(-c2csc(Nc3cccc(C(F)(F)F)c3)n2)c1)c1ccccc1
  A = /	B = 42*	C = -18	D = -5	E = 2	F = 3	G = 2	H = 16
11	COc1cc(NC(=O)c2ccno2)cc(C(=O)Nc2cccc(C(F)(F)F)c2)c1
  A = /	B = 4	C = 1	D = 19	E = -2	F = -3	G = /	H = /
12	COc1cc(NC(=O)c2cc3cccc(OC)c3o2)cc(C(=O)Nc2cccc(C(F)(F)F)c2)c1
  A = /	B = 33*	C = -14	D = -1	E = 0	F = -13	G = 0	H = -3
13	COc1ccc(NC(=O)N(C)C[C@H]2Oc3ccc(NC(=O)NC4CCCCC4)cc3CC(=O)N([C@H](C)CO)C[C@@H]2C)cc1
  A = /	B = /	C = 57	D = /	E = /	F = /	G = /	H = /
14	CNC[C@H]1Oc2c(NC(=O)C3CCCCC3)cccc2C(=O)N([C@@H](C)CO)C[C@H]1C
  A = /	B = /	C = -5	D = /	E = /	F = /	G = /	H = /
15	O=S(=O)(O)c1nc2ccccc2[nH]1
  A = -2	B = 35*	C = -8	D = -1	E = 0	F = -8	G = -1	H = -8

Other structures.
Letter code: A = NALP1 yeast inh; B = MC4R antagonist; C = Yeast UUG start; D = HDAC3 inh; E = MC4R ag barr; F = ALR H2O2 inh; G = U2OS cAMP counter; H = MC4R antag conf
16	O=C(C[C@H]1CC[C@H]2[C@@H](COC[C@@H](O)CN2C(=O)c2ccccc2)O1)Nc1nccs1
  A = /	B = /	C = -10	D = /	E = /	F = /	G = /	H = /
17	COc1ccc(NC(=O)Nc2ccc3c(c2)C(=O)N([C@@H](C)CO)C[C@H](C)[C@@H](CN(C)Cc2ccncc2)OCCCC[C@H](C)O3)cc1
  A = /	B = /	C = 4	D = /	E = /	F = /	G = /	H = /
18	C=CC[C@@H](CC(=O)N(CCO)Cc1ccccc1)C(=O)N[C@H](COC(=O)[C@@H](CC=C)Cc1ccc(F)cc1)Cc1ccccc1
  A = /	B = 14	C = -14	D = ?	E = 2	F = -1	G = /	H = /
19	C=CC[C@@H](CC(=O)N(CCO)Cc1ccccc1)C(=O)N[C@H](COC(=O)[C@@H](CC=C)Cc1ccc(F)cc1)Cc1c[nH]c2ccccc12
  A = /	B = 29*	C = -2	D = 8	E = 0	F = 0	G = 2	H = 5
20	C[C@@H]1CN([C@H](C)CO)S(=O)(=O)c2ccc(C#Cc3ccccc3F)cc2O[C@H]1CN(C)C
  A = /	B = /	C = -5	D = /	E = /	F = /	G = /	H = /
21	NC(=O)c1ccc(SCC(=O)OCC(=O)NCC2CCCCC2)c([N+](=O)[O-])c1
  A = /	B = 31*	C = -8	D = 8	E = -3	F = -24	G = 10	H = 36*
22	O=C(CNC(=O)c1ccc(Cl)cc1Cl)OCc1ccccc1
  A = /	B = 18	C = 0	D = -6	E = -3	F = -56	G = /	H = /
23	CN(C(=O)COC(=O)CNC(=O)c1ccc(Cl)cc1Cl)c1ccccc1
  A = 23	B = 30*	C = /	D = 4	E = -1	F = -11	G = 12	H = 23
24	O=C(CNC(=O)c1ccccc1)OCc1nc2ccccc2s1
  A = 34	B = 37*	C = /	D = -5	E = -4	F = -8	G = 17*	H = 16
25	COC(=O)C1CCN(C(=O)COC(=O)CNC(=O)c2ccc(Cl)cc2Cl)CC1
  A = /	B = 34*	C = -13	D = -4	E = 1	F = -4	G = 14*	H = 25
26	O=C(CNC(=O)c1ccc(Cl)cc1Cl)OCc1nc2ccccc2s1
  A = 31	B = 29*	C = /	D = 7	E = 2	F = -4	G = 14*	H = 18
27	O=C(CNC(=O)c1ccccc1F)OCc1nc2ccccc2s1
  A = 14	B = 15	C = /	D = -12	E = 0	F = -2	G = /	H = /
28	O=C(Nc1cccc(Cl)c1)N1C[C@@H]2[C@H](c3ccccc31)[C@H](CO)N2C(=O)c1cccnc1
  A = /	B = /	C = -16	D = /	E = /	F = /	G = /	H = /
29	O=C(O)C[C@H]1C[C@@H]2c3cc(NC(=O)c4ccc5c(c4)OCO5)ccc3O[C@@H]2[C@H](CO)O1
  A = /	B = /	C = -9	D = /	E = /	F = /	G = /	H = /
30	CC(c1ccco1)N(C(=O)c1ccccc1NS(=O)(=O)c1cc([N+](=O)[O-])ccc1Cl)c1ccccn1 (stereo not drawn)
  A = 25	B = 2	C = /	D = ?	E = -2	F = -4	G = /	H = /

Reprinted at random: 3 compounds from above, in no set order.
Letter code: A = NALP1 yeast inh; B = MC4R antagonist; C = Yeast UUG start; D = HDAC3 inh; E = MC4R ag barr; F = ALR H2O2 inh; G = U2OS cAMP counter; H = MC4R antag conf
22	O=C(CNC(=O)c1ccc(Cl)cc1Cl)OCc1ccccc1
  A = /	B = 18	C = 0	D = -6	E = -3	F = -56	G = /	H = /
23	CN(C(=O)COC(=O)CNC(=O)c1ccc(Cl)cc1Cl)c1ccccc1
  A = 23	B = 30*	C = /	D = 4	E = -1	F = -11	G = 12	H = 23
24	O=C(CNC(=O)c1ccccc1)OCc1nc2ccccc2s1
  A = 34	B = 37*	C = /	D = -5	E = -4	F = -8	G = 17*	H = 16

Going on with the list:
Letter code: A = NALP1 yeast inh; B = MC4R antagonist; C = Yeast UUG start; D = HDAC3 inh; E = MC4R ag barr; F = ALR H2O2 inh; G = U2OS cAMP counter; H = MC4R antag conf
31	CC(c1ccco1)N(C(=O)c1ccccc1NS(=O)(=O)c1cccc([N+](=O)[O-])c1)c1ccccn1 (stereo not drawn)
  A = 22	B = 30*	C = /	D = 5	E = -1	F = 0	G = -1	H = -1
32	COc1cccc(/C=C/C2=CC(C)(C)NC(=S)N2)c1
  A = -6	B = 29*	C = /	D = 4	E = -2	F = 6	G = -3	H = -10
33	O=C(c1ccc([N+](=O)[O-])cc1)N(Cc1ccc(Cl)cc1)N1C(=O)CCCC1=O
  A = -1	B = 32*	C = -17	D = 2	E = 4	F = 0	G = 17*	H = 32*
34	O=C(c1ccc([N+](=O)[O-])cc1)N(Cc1ccc(Cl)cc1Cl)N1C(=O)CCCC1=O
  A = 8	B = 12	C = -6	D = -3	E = 1	F = -6	G = /	H = /
35	C[C@@H]1CN([C@H](C)CO)C(=O)c2cc(C#Cc3ccccc3F)cnc2O[C@@H]1CN(C)C(=O)c1ccc2c(c1)OCO2
  A = /	B = /	C = 6	D = /	E = /	F = /	G = /	H = /
36	CC(C)c1nnc(NC(=O)c2nc(S(=O)(=O)Cc3ccc(F)cc3)ncc2Cl)s1
  A = -20	B = 56*	C = -11	D = 0	E = -3	F = 15	G = 16*	H = 39*
37	Cc1ccc(CS(=O)(=O)c2ncc(Cl)c(C(=O)Nc3nnc(C(C)C)s3)n2)cc1
  A = -23	B = 51*	C = -8	D = 0	E = -1	F = 14	G = 24*	H = 41*
38	Cc1ccc(CS(=O)(=O)c2ncc(Cl)c(C(=O)Nc3ccc(OC(F)F)cc3)n2)cc1
  A = 10	B = 40*	C = -17	D = -5	E = -4	F = -6	G = 23*	H = 13
39	CCS(=O)(=O)c1ncc(Cl)c(C(=O)Nc2ccc(C)cc2)n1
  A = 9	B = 0	C = -23	D = 0	E = 0	F = 26	G = /	H = /
40	Cc1cccc(CS(=O)(=O)c2ncc(Cl)c(C(=O)Nc3nnc(C(C)C)s3)n2)c1
  A = -4	B = 58*	C = -10	D = -4	E = -3	F = 11	G = 27*	H = 54*
